Experimental data from patent US8383626B2, “Nitric oxide donors for inducing neurogenesis” (Henry Ford Health System, priority 1999, dated 2013).

Test system: cGMP
Assay: cGMP measurement in brain tissue of non ischemic rats
Assay type: in vivo, rat
Conditions: 2 or 5 mg/kg for 7 days, vs control
Description: Levels of cGMP were measured in non ischemic rat brain. cGMP was determined by a commercially available low pH Immunoassay kit (R&D systems Inc, Minneapolis, Minn.). The sensitivity of the assay was approximately 0.6 pmol/ml for the non-acetylated procedure. The brain was rapidly removed and the cortex and the cerebellum were separated. The brain tissue was weighed and homogenized in 10 volume of 0.1 N HCl containing 1 mM 3-isobutyl-1-methylxanthine (IBMX).
To examine whether administration of VIAGRA™ affects brain cGMP levels, non ischemic rats were treated with VIAGRA™ at 2 mg/kg (n=6), 5 mg/kg (n=6) or saline (n=10) for 6 consecutive days. These rats were sacrificed one hour after the last treatment for measurement of brain cGMP. cGMP was determined by a commercially available low pH Immunoassay kit (R&D systems Inc, Minneapolis, Minn.).

CCCc1nn(C)c2c(=O)[nH]c(-c3cc(S(=O)(=O)N4CCN(C)CC4)ccc3OCC)nc12 [VIAGRA™, sildenafil] was tested, and the “cerebellar levels of cGMP” value was “not” and the “cortical levels of cGMP” value was “significantly (p<0.05) increased”.
